These results are taken from ChEMBL document CHEMBL1156757, “Dihydroxyphenylisoindoline amides as orally bioavailable inhibitors of the heat shock protein 90 (hsp90) molecular chaperone” (J Med Chem, 2010).

By UniProt entry, the sequences of proteins in these tests, tags left out. Where a name states a change or a piece, a line headed by the entry shows the natural chain unless it says otherwise.
UniProt P08238: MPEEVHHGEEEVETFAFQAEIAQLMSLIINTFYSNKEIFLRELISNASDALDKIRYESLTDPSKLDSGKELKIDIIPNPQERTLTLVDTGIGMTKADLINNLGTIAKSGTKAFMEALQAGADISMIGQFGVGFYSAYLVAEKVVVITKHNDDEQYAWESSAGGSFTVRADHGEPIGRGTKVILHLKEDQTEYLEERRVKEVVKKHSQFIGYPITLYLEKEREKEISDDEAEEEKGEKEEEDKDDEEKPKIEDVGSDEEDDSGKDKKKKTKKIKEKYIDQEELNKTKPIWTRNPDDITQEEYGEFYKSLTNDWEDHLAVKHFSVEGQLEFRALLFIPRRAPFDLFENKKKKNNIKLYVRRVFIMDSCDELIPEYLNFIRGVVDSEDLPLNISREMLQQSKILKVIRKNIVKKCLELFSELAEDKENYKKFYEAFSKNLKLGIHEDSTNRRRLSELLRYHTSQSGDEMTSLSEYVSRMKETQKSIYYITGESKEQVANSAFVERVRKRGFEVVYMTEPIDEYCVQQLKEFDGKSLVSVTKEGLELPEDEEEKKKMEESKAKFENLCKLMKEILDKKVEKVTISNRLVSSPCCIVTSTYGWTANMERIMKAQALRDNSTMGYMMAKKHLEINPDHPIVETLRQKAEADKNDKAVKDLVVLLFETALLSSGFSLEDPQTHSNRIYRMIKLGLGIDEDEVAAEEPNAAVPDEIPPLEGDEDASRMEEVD

One may read the IC50 as the concentration at which inhibition is half-maximal. Read a high IC50 as weaker potency in that assay.

The target of this test is Heat shock protein HSP90 (Homo sapiens, UniProt P07900+P08238).

Molecules are shown by their SMILES.

Take `CCCNC(=O)C1c2ccccc2CN1C(=O)c1cc(Cl)c(O)cc1O` (stereo unspecified): the IC50 was determined as 1.5 µM.
